Data as given in PubChem BioAssay (Tox21).
“And” between values parts separate entries of the source, which are not always exact repeats. Identical values can stand only once. The entries are a selection whose mix differs from that of the whole data set. The source made the active and inactive calls. Calls come from the whole dose curve.
% is set by controls: 0 for no effect and ±100 for the full control effect.

Amino acid sequences for entries named in this document (tags omitted).
UniProt P22303, whole entry: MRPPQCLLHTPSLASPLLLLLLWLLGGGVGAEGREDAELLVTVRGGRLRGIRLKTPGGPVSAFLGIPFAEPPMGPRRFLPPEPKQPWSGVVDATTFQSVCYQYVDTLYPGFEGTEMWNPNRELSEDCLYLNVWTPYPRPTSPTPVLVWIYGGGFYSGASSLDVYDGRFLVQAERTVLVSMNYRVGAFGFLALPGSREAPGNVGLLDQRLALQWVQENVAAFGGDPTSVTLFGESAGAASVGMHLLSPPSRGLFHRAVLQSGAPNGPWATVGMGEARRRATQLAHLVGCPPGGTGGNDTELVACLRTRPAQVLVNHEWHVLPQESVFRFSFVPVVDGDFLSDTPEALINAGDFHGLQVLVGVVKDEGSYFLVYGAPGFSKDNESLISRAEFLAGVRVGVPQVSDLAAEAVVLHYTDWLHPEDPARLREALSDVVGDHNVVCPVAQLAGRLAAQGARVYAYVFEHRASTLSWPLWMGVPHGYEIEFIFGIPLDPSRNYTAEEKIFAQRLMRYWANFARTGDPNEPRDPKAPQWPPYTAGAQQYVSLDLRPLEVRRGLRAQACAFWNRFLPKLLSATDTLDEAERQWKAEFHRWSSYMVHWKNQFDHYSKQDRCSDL

What follows are compounds tested against Acetylcholinesterase (Homo sapiens) (UniProt P22303) (assay: Acetylcholinesterase (AChE) small molecule antagonists: enzyme-based qHTS assay with human liver microsomes (AID 1347399; note: nearly all actives have a fitted effect of over 60% in size)). Conditions: at 53 µM (top of the series).
Excerpt: National Center for Advancing Translational Sciences [NCATS]
Division of Preclinical Innovation [DPI]
U.S. Environmental Protection Agency [EPA]
National Institutes of Environmental Health Sciences [NIEHS]
National Toxicology Program [NTP]
U.S. Food and Drug Administration [FDA]
Acetylcholinesterase (AChE) is the primary cholinesterase in the body that hydrolyzes a key neurotransmitter, acetylcholine. Inhibition of AChE activity can lead to neurotoxicity. The known inhibitors include organophosphorous pesticides (OP), chemical warfare agents, drugs, and various phytochemicals. Some compounds like OP compounds may need metabolic activation to be active AChE inhibitors. The cytochrome P450 (CYP) superfamily in the human microsomes is responsible for the metabolism of various endogenous and exogenous compounds.
An enzyme-based assay with the recombinant human AChE, human liver microsomes and Amplite Colormetric acetylcholinesterase assay kit (AAT Bioquest, Sunnyvale, CA) was used to evaluate compounds in the Tox21 10K library that need metabolic activation for AChE inhibition. The assay uses 5, 5-dithiobis-(2-nitrobenzoic acid) (DTNB) to quantify the thiocholine produced from the hydrolysis of acetylthiocholine by AChE.
Tox21 Assay Protocol Summary:
For the enzyme-based AChE assay with microsomes addition, a mixture of human AChE (50 mU/mL) and human liver microsomes (0.25 mg/mL, final concentration) in 3 uL/well was dispensed into black, clear-bottom 1536-well plates using a Multidrop Combi dispenser (Thermo Scientific, MA). Then, 23 nL of compound or DMSO (vehicle control) was transferred into the assay plates by a Pintool Station (Wako Automation, CA). Following compound addition, 1 uL of NADPH (0.25 mg/mL, final concentration) was transferred to the assay plate by a Flying Reagent Dispenser (Beckman Coulter, CA). The plates were incubated for 30 min at 37 C and 5% CO2, followed by the addition of 4 uL of colorimetric detection cocktail solution (DTNB, acetylthiocholine) into each well using a Flying Reagent Dispenser (Beckman Coulter, CA) and then 10 min incubation at room temperature.
In the case of `OCCSCCO`, the activity change, negative = inhibition is reported as inactive: 1.77%.

Same assay, conditions: at 115 µM (top of the series)
With `OCCSCCO` the activity change, negative = inhibition was inactive: 0.682%.

Same assay, conditions: at 115 µM (top of the series) unless noted
`ClCCNCCCl` was tested, and the activity change, negative = inhibition was inactive: -0.333%.
`COc1ccc([N+](=O)[O-])cc1[N+](=O)[O-]` was tested, and the activity change, negative = inhibition was inactive: 0%.
With `N#CBr` the activity change, negative = inhibition was inactive: -1.13%.
`CCOC(=O)N1CCC(=O)CC1` was tested, and the activity change, negative = inhibition was inactive: -1% [at 53 µM].
With `Cc1ccc([N+](=O)[O-])cc1[N+](=O)[O-]` the activity change, negative = inhibition was inactive: 0% and inactive: -1.79%.
With `CC(C)OP(OC(C)C)OC(C)C` the activity change, negative = inhibition was inactive: -0.103%.
For `CCOP(=O)(CC)OCC`, the activity change, negative = inhibition was inactive: -1.68%.
In the case of `CCC(=O)N(c1ccccc1)C1CCNCC1`, the activity change, negative = inhibition is reported as inactive: -0.371% [at 53 µM].
In the case of `Cc1c([N+](=O)[O-])cccc1[N+](=O)[O-]`, the activity change, negative = inhibition is reported as inactive: 0.695% and inactive: -1.07%.
`O=[N+]([O-])[O-].[NH4+]` was tested, and the activity change, negative = inhibition was inactive: 0% and inactive: 0.97%.
For `CC(C)N(CCO)C(C)C`, the activity change, negative = inhibition was inactive: 0%.
With `Cc1cccc([N+](=O)[O-])c1[N+](=O)[O-]` the activity change, negative = inhibition was inactive: -5.3% [at 53 µM].
With `O=[N+]([O-])OCC(CO[N+](=O)[O-])(CO[N+](=O)[O-])CO[N+](=O)[O-]` the activity change, negative = inhibition was inactive: -0.44%.
`CN(C)CCCl` was tested, and the activity change, negative = inhibition was inactive: 0.162%.
For `CCOP(=O)(Cl)Cl`, the activity change, negative = inhibition was inactive: -0.163% and inactive: 0.486%.
In the case of `CP(=O)(O)OCCC[Si](O)(O)O`, the activity change, negative = inhibition is reported as inactive: 0.163%.
`ClCCOP(OCCCl)OCCCl` was tested, and the activity change, negative = inhibition was inactive: -2.04% and inactive: -1.32%.
For `Nc1cc([N+](=O)[O-])cc([N+](=O)[O-])c1O`, the activity change, negative = inhibition was inactive: 17.2%.
With `O=[N+]([O-])c1cccc([N+](=O)[O-])c1` the activity change, negative = inhibition was inactive: 31.7%.
For `Cc1ccc([N+](=O)[O-])c([N+](=O)[O-])c1`, the activity change, negative = inhibition was inactive: -1.79% and inactive: -2.47%.
For `N=C(N)N[N+](=O)[O-]`, the activity change, negative = inhibition was inactive: -0.297%.
For `C/C1=C2N=C(/C=C3N=C(/C(C)=C4\[N-][C@@](C)([C@@H]5N=C1[C@](C)(CCC(=O)NC[C@@H](C)OP(=O)([O-])O[C@H]1[C@@H](O)[C@@H](n6cnc7cc(C)c(C)cc76)O[C@@H]1CO)[C@H]5CC(N)=O)[C@@](C)(CC(N)=O)[C@@H]4CCC(N)=O)[C@@](C)(CC(N)=O)[C@@H]\3CCC(N)=O)C(C)(C)[C@@H]/2CCC(N)=O.[C-]#N.[Co+3]`, the activity change, negative = inhibition was inactive: -0.175% [at 53 µM].
In the case of `[NH4+].[O-][Cl+3]([O-])([O-])[O-]`, the activity change, negative = inhibition is reported as inactive: -0.163% and inactive: 1.4%.
With `CCN(CC)CCCl` the activity change, negative = inhibition was inactive: 3.78%.
With `COP(C)(=O)OC` the activity change, negative = inhibition was inactive: -0.218% and inactive: -0.448%.
